Measured values taken from US20200340991A1.

Target: chimeric TSH receptor (chimeric MC4 receptor) expressed on CHO-MC4 cells (human/rat chimera) (UniProt P16473)
Experiment: cell-based or functional assay

- luciferase induction by bTSH relative to the wt TSHR cell line: 8 fold
Substance: bovine thyroid stimulating hormone (from UniProt P01217 25-120; P01223 21-132) (ligand)
